These results are taken from ChEMBL document CHEMBL1123240, “Cyclic analogues of 2-amino-4-phosphonobutanoic acid (APB) and their inhibition of hippocampal excitatory transmission and displacement of [3H]APB binding” (J Med Chem, 1986).

A short description of this assay: Ratio of IC50 of Lateral perforant path(LPP) to IC50 of [3H]- binding. In kind it is tissue-based. Summed up:
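Ratio of IC50 values. For line 8, LPP IC50 from slice recording over [3H]APB binding IC50. Each IC50 is a weighted mean of IC50s calculated for each experimental point, or for steep agonist-like curves is read directly from the log concentration–response curve.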
With `N[C@@]1(C(=O)O)CC[C@H](P(=O)(O)O)C1`, the Ratio stood at 200.
As for `N[C@@]1(C(=O)O)CC[C@@H](P(=O)(O)O)C1`, the figure is 1.6; as for `N[C@@H](CCP(=O)(O)O)C(=O)O`, 1.7.
